For the assay, the target named is Transient receptor potential cation channel subfamily A member 1 (Rattus norvegicus, UniProt Q6RI86). Kind of assay: Agonist activity at rat TRPA1 channel expressed in HEK293 cells assessed as calcium influx measured at every 1 second for 60 seconds by fluorescence analysis. It counts as functional, cell-based.

Protein sequences, listed by entry. Tags and fused reporters are not part of them.
UniProt Q6RI86, whole entry: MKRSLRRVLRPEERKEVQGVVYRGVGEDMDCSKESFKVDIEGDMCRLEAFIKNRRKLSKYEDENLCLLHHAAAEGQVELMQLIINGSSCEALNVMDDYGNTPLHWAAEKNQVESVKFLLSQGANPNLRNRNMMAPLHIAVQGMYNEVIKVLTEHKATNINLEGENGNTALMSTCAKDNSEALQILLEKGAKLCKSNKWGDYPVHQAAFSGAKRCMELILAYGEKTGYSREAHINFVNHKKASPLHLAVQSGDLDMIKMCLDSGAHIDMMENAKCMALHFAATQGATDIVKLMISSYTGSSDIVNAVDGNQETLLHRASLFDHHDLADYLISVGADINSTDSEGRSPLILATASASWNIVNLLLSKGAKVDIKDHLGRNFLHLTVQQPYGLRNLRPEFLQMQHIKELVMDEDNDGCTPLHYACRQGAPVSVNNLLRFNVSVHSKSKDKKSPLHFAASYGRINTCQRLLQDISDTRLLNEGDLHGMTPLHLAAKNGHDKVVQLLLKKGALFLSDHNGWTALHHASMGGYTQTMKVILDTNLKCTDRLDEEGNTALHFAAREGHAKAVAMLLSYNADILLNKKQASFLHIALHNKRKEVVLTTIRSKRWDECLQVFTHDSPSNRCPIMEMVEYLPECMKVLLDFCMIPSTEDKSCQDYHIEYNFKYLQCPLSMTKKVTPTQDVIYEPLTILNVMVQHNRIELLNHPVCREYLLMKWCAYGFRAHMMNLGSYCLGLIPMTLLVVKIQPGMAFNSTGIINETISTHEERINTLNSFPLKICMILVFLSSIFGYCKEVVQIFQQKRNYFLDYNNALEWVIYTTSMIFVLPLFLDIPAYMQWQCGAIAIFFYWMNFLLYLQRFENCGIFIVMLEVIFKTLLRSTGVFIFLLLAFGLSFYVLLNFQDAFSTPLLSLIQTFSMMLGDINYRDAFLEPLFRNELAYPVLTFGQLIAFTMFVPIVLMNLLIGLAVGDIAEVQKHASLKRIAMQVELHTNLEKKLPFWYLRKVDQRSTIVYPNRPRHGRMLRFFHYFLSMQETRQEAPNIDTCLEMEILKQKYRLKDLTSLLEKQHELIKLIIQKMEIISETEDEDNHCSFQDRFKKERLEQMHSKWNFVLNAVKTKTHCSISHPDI

As usually defined, the EC50 is the concentration giving half of the maximal effect. As to `C=CCN=C=S` [ALLYL ISOTHIOCYANATE], the EC50 worked out at 5.81 µM.

Source of the values: ChEMBL document CHEMBL1817669, “Design and pharmacological evaluation of PF-4840154, a non-electrophilic reference agonist of the TrpA1 channel” (Bioorg Med Chem Lett, 2011).
